# From PubChem BioAssay AID1347419 (Sanford-Burnham Center for Chemical Genomics, 2020)
# The chains behind the UniProt entries cited, without tags or fusion partners.
# UniProt Q14289, whole entry, looked up: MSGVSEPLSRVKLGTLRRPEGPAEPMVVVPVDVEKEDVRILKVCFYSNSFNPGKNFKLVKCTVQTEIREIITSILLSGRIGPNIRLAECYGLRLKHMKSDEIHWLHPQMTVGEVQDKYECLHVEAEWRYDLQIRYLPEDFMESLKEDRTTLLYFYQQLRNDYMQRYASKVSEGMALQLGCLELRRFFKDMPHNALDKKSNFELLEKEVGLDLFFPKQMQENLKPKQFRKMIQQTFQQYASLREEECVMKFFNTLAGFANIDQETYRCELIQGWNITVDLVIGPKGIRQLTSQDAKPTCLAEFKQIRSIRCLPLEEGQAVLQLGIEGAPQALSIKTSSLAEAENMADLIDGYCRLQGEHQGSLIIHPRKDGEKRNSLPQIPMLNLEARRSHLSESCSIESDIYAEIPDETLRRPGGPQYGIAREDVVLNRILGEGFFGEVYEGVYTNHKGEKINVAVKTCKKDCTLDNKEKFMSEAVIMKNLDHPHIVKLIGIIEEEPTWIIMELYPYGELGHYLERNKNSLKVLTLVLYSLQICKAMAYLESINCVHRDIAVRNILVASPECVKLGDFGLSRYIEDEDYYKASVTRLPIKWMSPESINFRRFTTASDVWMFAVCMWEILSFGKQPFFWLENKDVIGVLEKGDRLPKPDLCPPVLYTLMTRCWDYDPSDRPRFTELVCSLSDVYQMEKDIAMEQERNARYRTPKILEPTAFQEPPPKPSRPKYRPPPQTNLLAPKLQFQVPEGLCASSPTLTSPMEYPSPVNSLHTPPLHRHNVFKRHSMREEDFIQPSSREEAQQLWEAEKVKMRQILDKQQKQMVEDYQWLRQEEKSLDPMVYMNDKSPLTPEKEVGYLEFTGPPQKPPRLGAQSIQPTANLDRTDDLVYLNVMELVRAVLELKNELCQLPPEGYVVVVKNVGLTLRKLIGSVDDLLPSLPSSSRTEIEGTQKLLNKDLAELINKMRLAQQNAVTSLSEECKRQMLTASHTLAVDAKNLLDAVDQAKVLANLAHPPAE
# The list shows a part of the results, in another mix than the full data. Some tests of the compounds listed are not included; inactive here does not mean inactive elsewhere. Calls of active or inactive are those of the source.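 The calls were made as follows: active = Z-score of -3 or lower, scaled per plate to the spread of control and sample wells; inactive = z-score above -3.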
# Biological target: Protein-tyrosine kinase 2-beta (Homo sapiens) (UniProt Q14289)
# Test: Pyk2 FERM oligomerization blockers – Q293 cells, FERM NanoBiT luminescence, HTS, primary screen (AID 1347419);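 also: the deposit names both 25 µM and 10 µM; negative z-score means lost luminescence so less FERM oligomerization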
# Set-up: dose or concentration left out as unconfirmed
# Settings: stronger effect = lower value
row,Compound,z-score
1,O=C(OC1CN2CCC1CC2)C(CO)(c1ccccc1)c1ccccc1 (stereo not drawn),inactive: 0.44
2,CN(C)c1cccc(C(=O)NCC2(N(C)C)CCCCC2)c1,inactive: 0.2
3,CC(C)N1C(=O)CC2(CCN(CCOC(=O)C(O)(c3ccccc3)c3ccccc3)CC2)C1=O,inactive: -0.36
